The data set concerns bovine endothelial cells (CPAE) [소내피세포(CPAE)]. The format is cell-based.

Regarding “5-{6-(디메틸아미노)-9H-푸린-9-일}-테트라히드로-4'-푸란-3'-올-5'-o-테트라파이로(tetrafyro)-2H-피란-3'',4'',5''-트리올 [RPC-IV]”, the cytotoxicity result is “무독성”.

The record behind these values is KR20070037041A, “누에 수번데기로부터 아데노신 유도체 화합물을 정제하는방법 및 아데노신 유도체 화합물을 포함하는 발기부전치료용 조성물” (대한민국(관리부서:농촌진흥청장), priority 2005, dated 2007).
